IC50 data for two compounds are collected here from patent US6756370B1, “Piperidine alcohols” (Merck Patent GmbH, priority 1999, dated 2004).

Chains of the proteins cited; added tags and fusions are not shown.
UniProt P14842, whole entry: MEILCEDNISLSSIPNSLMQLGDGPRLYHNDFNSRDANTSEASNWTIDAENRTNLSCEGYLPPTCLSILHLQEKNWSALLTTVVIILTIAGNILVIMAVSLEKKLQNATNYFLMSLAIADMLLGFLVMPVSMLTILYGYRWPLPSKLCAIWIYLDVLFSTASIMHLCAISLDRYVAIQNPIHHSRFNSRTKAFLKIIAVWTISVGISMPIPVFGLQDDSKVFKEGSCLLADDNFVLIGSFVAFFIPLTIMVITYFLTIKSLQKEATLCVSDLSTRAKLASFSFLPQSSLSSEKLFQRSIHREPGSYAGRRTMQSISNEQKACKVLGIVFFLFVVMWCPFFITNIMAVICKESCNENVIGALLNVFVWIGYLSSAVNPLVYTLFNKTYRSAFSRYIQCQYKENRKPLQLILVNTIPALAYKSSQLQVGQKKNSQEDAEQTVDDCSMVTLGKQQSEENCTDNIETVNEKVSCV

For this assay, the target named is 5-HT2A receptors (Rattus norvegicus, UniProt P14842). Kind of assay: 5-HT2A receptor binding test ([3H]ketanserin displacement). Conditions: read-out: IC50 values (concentrations in mol/l at which 50% of the radioactive ligands are displaced from the binding sites), frontal rat cortex homogenate, 15 minutes at 37° C., tested form: HCl.

For `Cc1sc(Cl)cc1CCN1CCC(C(C)(O)c2ccc(F)cc2)CC1` (centres unmarked), the IC50 is 4.1 nM. With `CCC(O)(c1ccc(F)cc1)C1CCN(CCc2ccc(Cl)s2)CC1` (centres unmarked) the figure was 32 nM.
